Earlier results on 1 substance are cited in patent publication US20150328277A1 (Teva Pharmaceutical Industries, Ltd., priority 2012, published 2015).

Consider “L-glutamic acid polymer with L-alanine, L-lysine, L-tyrosine, acetate (salt) [glatiramer acetate]”, for which the “patients reporting Immediate Post-Injection Reaction (IPIR)” value (clinical trials, 13% on placebo) is 31%. The “proportion of patients reporting injection-site reactions at least once” value (controlled studies, placebo injections 37%) is 70%.
